Species on record: Homo sapiens
Test: Selectivity for CDK1 over VEGFR2

SMILES: c1ccc2c(-c3cnc4[nH]nc(-c5nc6ccccc6[nH]5)c4c3)cncc2c1
- Fold change: 60

Reference: ChEMBL document CHEMBL1148847, “Synthesis of 3-(1H-benzimidazol-2-yl)-5-isoquinolin-4-ylpyrazolo[1,2-b]pyridine, a potent cyclin dependent kinase 1 (CDK1) inhibitor” (Bioorg Med Chem Lett, 2007)
